Values quoted from earlier work in US11007192B2, “Use of 5-amino-2,3-dihydro-1,4-phthalazinedione in the treatment of chronic progressive multiple sclerosis” (METRIOPHARM AG, priority 2016, dated 2021).

System: neuronal damage
Conditions: higher concentrations in vitro; cited from earlier work

For `Nc1cccc2c(=O)[nH][nH]c(=O)c12.[Na]` [5-amino-2,3-dihydro-1,4-phthalazinedione sodium salt], the apoptosis is listed as “apoptosis was activated”.
